For experiment [1], the target named is T1, PI3K gamma (Homo sapiens, UniProt P48736). Put plainly: Competitive binding assay in MOLT-4 cell lysate with the phenylthiazole ligand 1 affinity matrix.
Experiment [2] addresses T1, PI3K gamma. Put plainly: Elution assay: PI3K gamma eluted from immobilized phenylthiazole ligand 1 (MOLT-4 lysate, dot blot).

Chains of the proteins cited; added tags and fusions are not shown. Lines headed by an entry give the natural chain unless they say otherwise; changes in a name come on top.
UniProt P48736: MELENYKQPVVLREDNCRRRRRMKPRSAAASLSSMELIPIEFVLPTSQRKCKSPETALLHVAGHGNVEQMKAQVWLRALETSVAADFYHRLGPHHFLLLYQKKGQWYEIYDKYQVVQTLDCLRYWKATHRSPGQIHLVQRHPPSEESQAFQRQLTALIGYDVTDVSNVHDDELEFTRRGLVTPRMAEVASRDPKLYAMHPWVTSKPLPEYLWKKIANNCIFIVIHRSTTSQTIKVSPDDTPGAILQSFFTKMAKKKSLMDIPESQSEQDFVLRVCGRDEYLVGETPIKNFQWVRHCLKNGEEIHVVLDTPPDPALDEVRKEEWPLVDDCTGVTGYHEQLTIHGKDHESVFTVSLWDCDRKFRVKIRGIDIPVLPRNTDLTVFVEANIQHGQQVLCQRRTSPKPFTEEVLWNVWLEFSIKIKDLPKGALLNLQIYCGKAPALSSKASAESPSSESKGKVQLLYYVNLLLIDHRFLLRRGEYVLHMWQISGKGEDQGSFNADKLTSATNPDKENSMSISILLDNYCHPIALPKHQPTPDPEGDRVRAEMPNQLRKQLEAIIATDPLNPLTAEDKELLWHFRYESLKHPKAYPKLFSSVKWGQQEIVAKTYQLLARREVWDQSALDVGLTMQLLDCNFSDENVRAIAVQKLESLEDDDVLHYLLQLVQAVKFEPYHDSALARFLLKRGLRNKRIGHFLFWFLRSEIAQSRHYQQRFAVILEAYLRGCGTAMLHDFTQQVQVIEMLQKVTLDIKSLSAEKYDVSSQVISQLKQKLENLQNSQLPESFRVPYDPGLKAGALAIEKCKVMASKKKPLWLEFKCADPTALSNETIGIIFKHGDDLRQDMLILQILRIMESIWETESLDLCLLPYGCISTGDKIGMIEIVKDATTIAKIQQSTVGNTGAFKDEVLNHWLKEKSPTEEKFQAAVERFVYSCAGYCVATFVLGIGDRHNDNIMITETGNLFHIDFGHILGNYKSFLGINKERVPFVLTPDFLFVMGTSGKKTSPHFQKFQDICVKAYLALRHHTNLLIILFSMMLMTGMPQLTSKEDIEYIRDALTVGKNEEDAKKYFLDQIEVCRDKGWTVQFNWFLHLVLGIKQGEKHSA

A value given as a limit tells only on which side of the number the result lay.

By IC50 is commonly meant the concentration that gives 50% inhibition.

For `O=c1cc(N2CCOCC2)oc2c(-c3ccccc3)cccc12` [Compound 1], the IC50 was > 30 µM on PI3K gamma [1] and > 100 µM against PI3K gamma [2].

Values taken from US8153389B2, “Methods for the identification of PI3K interacting molecules and for the purification of PI3K” (CellZone AG, priority 2006, dated 2012).
